These are literature values, as cited in patent US20240115492A1, “AN ORODISPERSIBLE PHARMACEUTICAL SOLID DOSAGE FORM OF RASAGILINE” (INTAS PHARMACEUTICALS LTD., priority 2021, published 2024).

The chains behind the UniProt entries cited, without tags or fusion partners.
UniProt P27338, whole entry: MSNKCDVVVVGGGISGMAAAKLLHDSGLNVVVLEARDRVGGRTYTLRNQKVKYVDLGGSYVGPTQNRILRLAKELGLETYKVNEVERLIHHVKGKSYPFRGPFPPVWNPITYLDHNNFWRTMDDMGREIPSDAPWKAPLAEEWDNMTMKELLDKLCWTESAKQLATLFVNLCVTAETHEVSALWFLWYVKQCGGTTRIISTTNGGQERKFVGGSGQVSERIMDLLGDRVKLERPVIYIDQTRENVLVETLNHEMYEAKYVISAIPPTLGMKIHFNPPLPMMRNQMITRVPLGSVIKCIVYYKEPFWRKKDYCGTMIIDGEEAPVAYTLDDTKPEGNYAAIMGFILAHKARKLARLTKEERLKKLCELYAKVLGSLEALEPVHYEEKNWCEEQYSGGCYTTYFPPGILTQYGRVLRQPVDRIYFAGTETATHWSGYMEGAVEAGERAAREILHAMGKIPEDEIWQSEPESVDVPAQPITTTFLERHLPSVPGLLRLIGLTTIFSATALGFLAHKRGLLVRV

In the data set the target is monoamine oxidase B (Homo sapiens, UniProt P27338).

Turning to `NC1CCc2ccccc21` (stereo not shown) [indan-1-amine], the “inhibition of monoamine oxidase B” value is “does not inhibit”.
